Target: ERβ (Homo sapiens, UniProt Q92731)
Assay: BRET assay ERβ and CoApep-Venus

Amino acid sequences for entries named in this document (tags omitted). A change or cut given only in a name is not applied to a line headed by its entry.
UniProt Q92731: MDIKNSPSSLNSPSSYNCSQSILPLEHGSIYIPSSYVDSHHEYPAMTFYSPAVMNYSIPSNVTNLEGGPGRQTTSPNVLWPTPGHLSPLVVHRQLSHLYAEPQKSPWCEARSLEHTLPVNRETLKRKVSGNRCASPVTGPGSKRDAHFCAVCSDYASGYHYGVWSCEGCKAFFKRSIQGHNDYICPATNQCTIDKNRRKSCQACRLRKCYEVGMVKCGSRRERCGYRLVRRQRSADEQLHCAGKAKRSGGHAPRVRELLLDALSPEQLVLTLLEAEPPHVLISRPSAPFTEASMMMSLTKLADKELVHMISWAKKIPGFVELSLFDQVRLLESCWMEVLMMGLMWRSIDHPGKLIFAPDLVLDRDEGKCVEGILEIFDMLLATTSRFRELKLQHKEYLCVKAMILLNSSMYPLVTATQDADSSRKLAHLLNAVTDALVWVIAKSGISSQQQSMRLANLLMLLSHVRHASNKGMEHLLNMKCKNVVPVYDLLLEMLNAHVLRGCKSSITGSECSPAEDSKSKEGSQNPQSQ

4-hydroxytamoxifen
recruitment of CoApep-Venus to ERβ, BRET: OHT-repressed

From patent US10324085B2, “Systems and methods for the monitoring of protein complex formation in cells” (priority 2013, dated 2019)
